Among the data in patent US6124305A, “Use of N-(substituted glycyl)-2-cyanopyrrolidines in inhibiting dipeptidyl peptidase-IV” (Novartis AG, priority 1999, dated 2000) are IC50 values, retold here.

The chains behind the UniProt entries cited, without tags or fusion partners. Residues count along the entry.
UniProt P14740, 37-767 limits assumed: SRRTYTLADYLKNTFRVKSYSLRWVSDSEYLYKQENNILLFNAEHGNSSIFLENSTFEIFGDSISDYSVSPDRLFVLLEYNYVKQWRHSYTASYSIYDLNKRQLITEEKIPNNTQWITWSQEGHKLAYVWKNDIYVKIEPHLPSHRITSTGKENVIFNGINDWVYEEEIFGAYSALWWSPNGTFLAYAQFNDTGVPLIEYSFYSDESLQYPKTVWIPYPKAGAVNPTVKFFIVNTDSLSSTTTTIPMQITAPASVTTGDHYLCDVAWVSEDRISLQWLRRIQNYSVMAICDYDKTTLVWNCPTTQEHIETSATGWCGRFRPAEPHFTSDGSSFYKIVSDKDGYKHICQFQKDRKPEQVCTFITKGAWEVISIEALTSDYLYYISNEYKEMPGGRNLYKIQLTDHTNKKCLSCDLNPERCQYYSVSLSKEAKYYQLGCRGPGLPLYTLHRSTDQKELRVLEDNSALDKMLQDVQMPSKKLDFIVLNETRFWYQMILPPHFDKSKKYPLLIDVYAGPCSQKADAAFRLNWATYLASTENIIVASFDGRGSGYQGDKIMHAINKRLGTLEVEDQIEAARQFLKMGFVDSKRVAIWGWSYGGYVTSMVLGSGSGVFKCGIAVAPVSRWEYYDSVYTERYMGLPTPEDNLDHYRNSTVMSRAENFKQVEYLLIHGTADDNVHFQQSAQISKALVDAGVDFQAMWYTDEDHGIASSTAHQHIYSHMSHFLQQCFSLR

The assay has as its target T1, rat plasma DPP-IV (Rattus norvegicus, UniProt P14740).
T1 construct: DPP-IV activity in human and rat plasma; from tissue; host or cells: rat plasma
As to the kind of experiment: rat plasma DPP-IV inhibition assay. The assay is classed as biochemical.

Molecules are shown by their SMILES. Where a name gives a salt, the structure may show the parent alone.

As a reminder, the IC50 is the concentration that gives 50% inhibition. A low value points to greater potency. As to `N#C[C@@H]1CCCN1C(=O)CNCCNc1ccccn1`, the IC50 is 32 nM.

Molecule `N#C[C@@H]1CCCN1C(=O)CNC1CCCCCCC1` [Ex. 58, Pyrrolidine, 1-(cyclooctylamino)acetyl-2-cyano-, (S)--, monohydrochloride] showed an IC50 of 100 nM.

For the molecule `N#C[C@@H]1CCCN1C(=O)CNC1CCCCC1` [Ex. 28, Pyrrolidine, 1-(cyclohexylamino)acetyl-2-cyano-, (S)--, monohydrochloride], the IC50 amounted to 60 nM.

`N#C[C@@H]1CCCN1C(=O)CNCCc1ccccc1` [Ex. 54, Pyrrolidine, 1-[(2-phenylethyl)amino]acetyl-2-cyano-, (S)--, monohydrochloride] registered an IC50 of 60 nM.

The molecule `N#C[C@@H]1CCCN1C(=O)CNC1C2CC3CC(C2)CC1C3` (stereo partly drawn) [Ex. 49, Pyrrolidine, 1-[(2-adamantyl)amino]acetyl-2-cyano-, (S)--, monohydrochloride] came in with an IC50 of 3 nM.

In turn, `C[C@@H]1[C@H]2C[C@@H](C[C@H]1NCC(=O)N1CCC[C@H]1C#N)C2(C)C` (relative stereo) [Ex. 33, Pyrrolidine, 1-[(2,6,6-trimethylbicyclo[3.1.1]hept-3-yl)amino]acetyl-2-cyano-, (S)[1S[1α,2β,3α(S*),5α]]-monohydrochloride] registered a half-maximal inhibitory concentration (IC50) of 10 nM.

Molecule `N#C[C@@H]1CCCN1C(=O)CNC1CCC1` [Ex. 38, Pyrrolidine, 1-(cyclobutylamino)acetyl-2-cyano-, (S)-monohydrochloride] gave an IC50 of 23 nM.

As for `N#C[C@@H]1CCCN1C(=O)CNCCNc1ccc([N+](=O)[O-])cn1` [Ex. 8, 1-[2-[(5-nitropyridin-2-yl)amino]ethylamino]acetyl-2-cyano-(S)pyrrolidine], 11 nM corresponded to half-maximal inhibition (IC50).

As to `N#C[C@@H]1CCCN1C(=O)CNCCCc1ccccc1` [Ex. 21, Pyrrolidine, 1-[(3-phenylpropyl)amino]acetyl-2-cyano-, (S)--, monohydrochloride], the IC50 worked out at 110 nM.

On to `N#C[C@@H]1CCCN1C(=O)CNC1CC1` [Ex. 43, Pyrrolidine, 1-(cyclopropylamino)acetyl-2-cyano-, (S)--, monohydrochloride], for which the IC50 was determined as 120 nM.

`N#C[C@@H]1CCCN1C(=O)CNC1(CO)CCCC1` [Ex. 5, 1-[(1-hydroxymethylcyclopent-1-yl)amino]acetyl-2-cyano-(S)-pyrrolidine] showed an IC50 of 18 nM.

On to `N#C[C@@H]1CCCN1C(=O)CNCCOc1ccccc1` [Ex. 45, Pyrrolidine, 1-[[(2-phenoxy)ethyl]amino]acetyl-2-cyano-, (S)--, monohydrochloride], for which the IC50 worked out at 390 nM.

For `N#Cc1ccc(NCCCNCC(=O)N2CCC[C@H]2C#N)nc1` [Ex. 63, Pyrrolidine, 1-[[3-[(5-cyano-2-pyridinyl)amino]propyl]amino]acetyl-2-cyano-, (S)--, dihydrochloride], inhibition was half-maximal at 30 nM (IC50).

`N#C[C@@H]1CCCN1C(=O)CNC1(CO)CCCCC1` came in with an IC50 of 40 nM.

As to `C[C@@H]1[C@@H](NCC(=O)N2CCC[C@H]2C#N)C[C@H]2C[C@@H]1C2(C)C` (relative stereo) [Ex. 44, Pyrrolidine, 1-[(2,6,6-trimethylbicyclo[3.1.1]hept-3-yl)amino]acetyl-2-cyano-, [1S[1α,2α,3β(S*),5α]]-monohydrochloride], half-maximal inhibition (IC50) was put at 10 nM.

Turning to `N#C[C@@H]1CCCN1C(=O)CNCc1ccccc1` [Ex. 51, Pyrrolidine, 1-[(phenylmethyl)amino]acetyl-2-cyano-,(S)--, monohydrochloride], the IC50 was 150 nM.

The molecule `N#C[C@@H]1CCCN1C(=O)CNC1CCCCCC1` [Ex. 24, Pyrrolidine, 1-(acycloheptylamino)acetyl-2-cyano-, (S)--, monohydrochloride] showed an IC50 of 19 nM.

In turn, `N#C[C@@H]1CCCN1C(=O)CNCc1cccc2ccccc12` [Ex. 20, Pyrrolidine, 1-[[(1-naphthalenyl)methyl]amino]acetyl-2-cyano-, (S)--, monohydrochloride] returned an IC50 of 150 nM.
